This assay concerns the target Kappa-type opioid receptor (Homo sapiens, UniProt P41145). Kind of assay: Activation of human Opioid receptor kappa 1 expressed in chinese hamster ovary cells to enhance [35S]GTP-gamma-S, binding compared to U50,488H. It is filed as functional, cell-based. The gist of the method: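 Agonist efficacy at human κ-opioid receptor, read as enhancement of [35S]GTPγS binding and expressed as % of the maximal response to U50,488H. Mean of at least three independent experiments, each run in duplicate.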

Chains of the proteins cited; added tags and fusions are not shown. Lines headed by an entry give the natural chain unless they say otherwise; changes in a name come on top.
UniProt P41145: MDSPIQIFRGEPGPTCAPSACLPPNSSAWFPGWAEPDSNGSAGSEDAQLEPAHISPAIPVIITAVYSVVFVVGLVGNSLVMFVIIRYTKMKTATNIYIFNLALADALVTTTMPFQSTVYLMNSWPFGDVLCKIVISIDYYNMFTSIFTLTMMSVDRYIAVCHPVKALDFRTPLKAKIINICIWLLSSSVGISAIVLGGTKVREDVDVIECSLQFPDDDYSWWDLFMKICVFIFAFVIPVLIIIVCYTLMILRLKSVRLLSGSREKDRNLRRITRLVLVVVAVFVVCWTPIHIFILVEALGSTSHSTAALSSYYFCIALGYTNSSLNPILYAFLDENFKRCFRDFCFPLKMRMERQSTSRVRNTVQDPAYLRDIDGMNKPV

As for `COC(=O)[C@@H]1C[C@H](OC(C)=O)C(=O)[C@H]2[C@@]1(C)CC[C@H]1C(=O)O[C@H](c3ccoc3)C[C@]21C`, the Efficacy turned out to be 99%.

These data come from ChEMBL document CHEMBL1145271 (Bioorg Med Chem Lett, 2005).
